# Hits are enriched below; roughly 1.2% of the tested compounds scored in any of these assays.
# Yeast UUG start-1 – yeast start codon fidelity modulation | S. cerevisiae UUG-firefly luciferase reporter, luminescence/redox ratio | activity score, % at 18.7 µM | 0.13% of 350,000 active | AID 602363;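 active means replicate mean at a twofold rise or more, about +100% in these data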;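 further: firefly luciferase made from a UUG start codon reports start codon fidelity; reporter light over untreated wells divided by growth signal over untreated wells; some hits fall short of that in this replicate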
# Tb MetRS inh – Trypanosoma brucei MetRS inhibition; inhibition, % at 11.9 µM; purified T. brucei MetRS, ATP depletion, Kinase-Glo luminescence; AID 624268; 0.4% of 360,000 active;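 active means inhibition above a per-plate cutoff of the control wells' mean inhibition plus 3 SD, cut at about 5.5% in these data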;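 further: 0% = DMSO wells median and 100% = median of wells with control inhibitor compound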
#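 System: purified T. brucei MetRS enzyme / Detection: Kinase-Glo luciferase luminescence reporting remaining unconsumed ATP / Medium: HEPES buffer with MgCl2, KCl, DTT, spermine, BSA, pyrophosphatase / Replication: singlicate, one well per compound / Evaluation: percent inhibition relative to median high and low control wells / Schedule: 2 h aminoacylation at 25 °C after 15 min preincubation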
# Arr AP2 block – human beta-arrestin and AP2 interaction inhibition; FITC-arrestin peptide / GST-AP2 beads, flow cytometry; AP2 beta2 appendage carries R879A mutation; inhibition, % at 10 µM; 0.31% of 340,000 active;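 active means inhibition above a set limit, near 3 SD of compounds lacking own fluorescence, cut at about 54% in these data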;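 further: plate controls were DMSO wells for no effect and 5 µM unlabelled arrestin peptide for full effect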
#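 System: GST-AP2 R879A glutathione beads; medium: PBS, Tween 20 0.05%, BSA 0.1%; reagent: fluorescein-tagged arrestin peptide at 50 nM final; schedule: pre-incubation 12 min, peptide binding 1 h, room temperature; detection: flow cytometry, FL1 (488/535 nm); read-out: inhibition as reduced fluorescein signal on beads, percent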
# DSG3 Ab inh – inhibitors of pemphigus antibody binding to human desmoglein-3 | P32926 | DSG3-coupled beads, scFv-anti-DSG3-GFP binding, flow cytometry; active compounds read low | binding (percent of control), % at 10 µM | 0.48% of 310,000 active | AID 588358;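 active means binding more than 3 SD below its plate's average and above zero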;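 further: hits lower antibody fragment binding to DSG3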
# Rce1 inhib – blocks yeast Ras-converting enzyme. Q03530. calls only. yeast membranes, quenched prenylated peptide cleavage fluorescence. AID 2563. 0.27% of 290,000 active;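 active means fall in fluorescence gain of 50% or more versus controls, with final raw signal at or below 3038400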;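 further: plate controls were neutral control wells for no effect and wells lacking membranes for full effect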
# Yeast UUG start-2 – alters UUG start codon use in yeast. shares compounds with Yeast UUG start-1. S. cerevisiae UUG-start firefly luciferase, luminescence, 4 h; 100% means double the DMSO signal. activation, % at 38 µM. 540 tested, under 10 active;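 active means signal increase whose fitted curve reaches an absolute level of 40 at a concentration under 10 µM; inactive means activity opposite to the expected increase, or the rest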
# * marks the source's active call; other numbers are inactive results; i = inactive; nt = not tested or not shown.
# Assay codes: A = Yeast UUG start-1; B = Tb MetRS inh; C = Arr AP2 block; D = DSG3 Ab inh; E = Rce1 inhib; F = Yeast UUG start-2
CC(C)n1cc(C(=O)c2ccccc2O)cc(C#N)c1=O
  A = 229.8*; B = 0.0; C = 27.1; D = nt; E = i; F = 8.0

CNC[C@@H]1Oc2ccc(NS(=O)(=O)c3cn(C)cn3)cc2CC(=O)N([C@H](C)CO)C[C@@H]1C
  A = 6.4; B = nt; C = nt; D = nt; E = nt; F = nt

COc1ccc(S(=O)(=O)N2CCCCN3[C@@H](CO)[C@H](c4ccc(C#CC5CC5)cc4)[C@@H]3C2)cc1
  A = 20.7; B = nt; C = nt; D = nt; E = nt; F = nt

C[C@H](CO)N1C[C@H](C)[C@H](CN(C)S(=O)(=O)c2cn(C)cn2)OCCCC[C@H](C)Oc2ccc(NC(=O)CCC(F)(F)F)cc2C1=O
  A = 5.5; B = nt; C = nt; D = nt; E = nt; F = nt

COc1ccc(C2CCCN2C(=S)Nc2cccc(C)c2)cc1OC (stereo not given)
  A = nt; B = 0.4; C = 35.5; D = 100.1; E = i; F = nt

COc1ccc(NC(=S)N2CCCC2c2ccc(OC)c(OC)c2)cc1 (stereo not given)
  A = 339.4*; B = -0.5; C = 0.3; D = 102.9; E = i; F = 3.4

C[C@@H]1CN([C@@H](C)CO)C(=O)Cc2cc(NS(=O)(=O)c3cn(C)cn3)ccc2O[C@H]1CN(C)C(=O)Nc1cccc2ccccc12
  A = -12.2; B = nt; C = nt; D = nt; E = nt; F = nt

OC(C#CCN1CCCC1)(c1ccccc1)c1cccnc1 (stereo not given)
  A = 133.6*; B = -0.8; C = 3.0; D = 92.2; E = i; F = -4.0

CCN(CC)CCC#CC(O)(c1ccccc1)c1ccccc1
  A = nt; B = -0.8; C = -3.1; D = nt; E = i; F = nt

CC(C)C(O)(C#CCN1CCCC1)c1ccccc1 (stereo not given)
  A = nt; B = -0.9; C = -4.8; D = 98.9; E = i; F = -1.2

OC(C#CCN1CCCCCC1)(c1ccccc1)c1cccnc1 (stereo not given)
  A = nt; B = -0.1; C = -9.4; D = 109.3; E = i; F = 21.8

CCCN(CC#CC(O)(c1ccccc1)c1cccnc1)CCC (stereo not given)
  A = nt; B = 0.1; C = 17.5; D = 100.5; E = i; F = -2.7

O=C(NNc1c(Cl)cc(Cl)cc1Cl)c1n[nH]c(=O)c2ccccc12
  A = 209.1*; B = 1.1; C = 21.6; D = 93.0; E = i; F = -3.3

NNC(=O)c1n[nH]c(=O)c2ccccc12
  A = -21.4; B = -0.2; C = -3.7; D = 104.3; E = i; F = nt

COc1ccc(CCNS(=O)(=O)c2ccc(Br)cc2)cc1OC
  A = 16.3; B = -2.3; C = -0.9; D = 114.5; E = i; F = nt

COc1ccc(CCNS(=O)(=O)c2ccccc2)cc1OC
  A = 705.5*; B = -0.5; C = 22.6; D = 97.3; E = i; F = -4.6

COc1ccc(CCNS(=O)(=O)c2ccc(OC)c(OC)c2)cc1OC
  A = -20.4; B = -0.8; C = 32.1; D = 111.7; E = i; F = nt

COc1ccc(CCNS(=O)(=O)c2ccc(Cl)cc2)cc1OC
  A = -13.8; B = 0.0; C = 9.7; D = 97.9; E = i; F = -7.2

COC(=O)c1c2oc(c1C(=O)OC)C(=O)N[C@@H](Cc1ccccc1)Cn1cc(nn1)CNC(=O)[C@H](Cc1ccccc1)NC(=O)N[C@@H](CO)CC2
  A = 112.9*; B = nt; C = nt; D = nt; E = nt; F = i

COC(=O)c1c2oc(c1C(=O)OC)C(=O)N(C)Cc1cn(nn1)C[C@H](Cc1ccccc1)NC(=O)N[C@H](CO)CC2
  A = 41.4; B = nt; C = nt; D = nt; E = nt; F = nt

COC(=O)C1=C2CC[C@H](CO)NC(=O)N[C@H](Cc3ccccc3)C(=O)NCc3cn(nn3)C[C@@H](Cc3ccccc3)NC(=O)c3oc(c(C(=O)OC)c3C(=O)OC)CC[C@H](CO)NC(=O)N[C@H](Cc3ccccc3)C(=O)NCc3cn(nn3)C[C@@H](Cc3ccccc3)NC(=O)C(=C1C(=O)OC)O2
  A = 62.8; B = nt; C = nt; D = nt; E = nt; F = nt

COC(=O)c1c2oc(c1C(=O)OC)C(=O)N[C@H](Cc1ccccc1)Cn1cc(nn1)CNC(=O)[C@H](Cc1ccccc1)NC(=O)N[C@@H](CO)CC2
  A = 215.9*; B = nt; C = nt; D = nt; E = nt; F = i

CCCc1nc2ccc(C)cn2c1Cc1ccccc1C(F)(F)F
  A = 105.3*; B = -0.5; C = nt; D = nt; E = nt; F = 0.3

CCCc1nc2ccc(C)cn2c1Cc1ccccc1OC
  A = 44.6; B = 0.8; C = nt; D = nt; E = nt; F = nt

C[C@@H]1CCCCO[C@@H](CN(C)C(=O)Cc2ccccc2)[C@H](C)CN([C@H](C)CO)C(=O)c2cc(NS(=O)(=O)c3cccs3)ccc2O1
  A = 0.8; B = nt; C = nt; D = nt; E = nt; F = nt

O=C(O)C[C@@H]1C[C@H]2c3cc(NC(=O)Nc4ccccc4F)ccc3O[C@H]2[C@H](CO)O1
  A = 5.0; B = nt; C = nt; D = nt; E = nt; F = nt

COCCNC(=O)C[C@H]1C[C@@H]2c3cc(NC(=O)c4ccc5c(c4)OCO5)ccc3O[C@@H]2[C@@H](CO)O1
  A = 6.7; B = nt; C = nt; D = nt; E = nt; F = nt

COCCNC(=O)C[C@H]1C[C@H]2c3cc(NC(=O)c4ccc5c(c4)OCO5)ccc3O[C@H]2[C@@H](CO)O1
  A = 136.8*; B = nt; C = nt; D = nt; E = nt; F = i

COC(=O)C[C@@H]1C[C@@H]2c3cc(NC(=O)Nc4ccccc4F)ccc3O[C@@H]2[C@@H](CO)O1
  A = 71.5*; B = nt; C = nt; D = nt; E = nt; F = i

COc1cc(S(=O)(=O)N2CCOCC2)ccc1F
  A = 196.1*; B = -0.2; C = 24.9; D = 100.2; E = i; F = -0.6

# Full records, looked up by structure. Order of values: Yeast UUG start-1	Tb MetRS inh	Arr AP2 block	DSG3 Ab inh	Rce1 inhib	Yeast UUG start-2
# Listed for CC(C)n1cc(C(=O)c2ccccc2O)cc(C#N)c1=O = 229.8*	0.0	27.1	nt	i	8.0
# Listed for COc1ccc(S(=O)(=O)N2CCCCN3[C@@H](CO)[C@H](c4ccc(C#CC5CC5)cc4)[C@@H]3C2)cc1 = 20.7	nt	nt	nt	nt	nt
# Listed for CCCc1nc2ccc(C)cn2c1Cc1ccccc1OC = 44.6	0.8	nt	nt	nt	nt

# Going on with the list:
# Assay codes: A = Yeast UUG start-1; B = Tb MetRS inh; C = Arr AP2 block; D = DSG3 Ab inh; E = Rce1 inhib; F = Yeast UUG start-2
COc1cc(S(=O)(=O)N2CCOCC2)ccc1N
  A = nt; B = -1.9; C = 12.7; D = 101.6; E = i; F = nt

COc1cc(CCC(=O)OCC(=O)Nc2cccc(S(=O)(=O)N(C)C)c2)cc(OC)c1OC
  A = nt; B = -1.0; C = 28.8; D = 104.0; E = i; F = nt

CCN(CC)S(=O)(=O)c1ccc(NC(=O)COC(=O)CCc2cc(OC)c(OC)c(OC)c2)cc1
  A = nt; B = 0.1; C = 23.2; D = 124.7; E = i; F = 2.1

C[C@@H]1CN([C@@H](C)CO)S(=O)(=O)c2ccc(C#C[C@@H](C)O)cc2O[C@@H]1CN(C)C(=O)C1CCCCC1
  A = 17.8; B = nt; C = nt; D = nt; E = nt; F = nt

CC(=O)Nc1ccc(OCc2cn(CC(=O)c3ccc(O)cc3)nn2)cc1
  A = 96.5*; B = -0.9; C = nt; D = 100.8; E = nt; F = -6.7

O=C(Cn1cc(COc2ccccc2C(F)(F)F)nn1)c1ccc(O)cc1
  A = 140.7*; B = -0.3; C = 8.2; D = 96.7; E = nt; F = 4.4

COc1cc(C(C)=O)ccc1OCc1cn(CC(=O)c2ccc(O)cc2)nn1
  A = 156.8*; B = -0.7; C = 11.1; D = 93.2; E = nt; F = -1.4

COc1ccc(NC(=O)N(C)C[C@@H]2OCCCC[C@@H](C)Oc3ccc(NC(=O)Nc4ccc5c(c4)OCO5)cc3C(=O)N([C@@H](C)CO)C[C@H]2C)cc1
  A = 10.3; B = nt; C = nt; D = nt; E = nt; F = nt

O=C(c1cc(Cl)cc(Cl)c1)N1CCC2CC1c1cc(-c3ccc4c(c3)OCO4)ccc12 (stereo not given)
  A = active; B = 0.0; C = -12.6; D = 99.7; E = nt; F = 9.3

O=C(C1CCC1)N1C[C@H]2[C@@H](c3ccccc31)[C@H](CO)N2C(=O)c1ccccc1
  A = 101.1*; B = nt; C = nt; D = nt; E = nt; F = i

O=C(C1CCC1)N1C[C@@H]2[C@H](c3ccccc31)[C@H](CO)N2C(=O)c1ccccc1F
  A = 195.0*; B = nt; C = nt; D = nt; E = nt; F = i

C[C@@H]1CN([C@H](C)CO)C(=O)Cc2cc(NC(=O)Cn3cnnn3)ccc2O[C@H]1CN(C)S(=O)(=O)c1ccc(F)cc1
  A = -3.0; B = nt; C = nt; D = nt; E = nt; F = nt

CCOc1ccccc1Nc1nc2ccccc2[nH]1
  A = 580.8*; B = 1.9; C = 0.7; D = 99.3; E = i; F = -2.1

CNC(=O)c1ccccc1NC(=O)c1cccc(S(=O)(=O)N2CCCCC2)c1
  A = 188.3*; B = -0.9; C = 30.2; D = nt; E = i; F = -3.0

CNC(=O)c1ccccc1NC(=O)c1cccc(S(=O)(=O)N2CCC(C)CC2)c1
  A = nt; B = 0.2; C = 16.8; D = 107.1; E = i; F = nt

# Screens (PubChem)
